Common to all, as to assay type: functional, cell-based
Experiment [1] is described as follows: Antiproliferative activity against human Jurkat cells after 3 days by CellTiter-Glo assay. Conditions: 72 h. (In ATP-based viability assays light output follows the ATP content of the culture.)
Experiment [2] can be described thus: Antiproliferative activity against human MOLM14 cells after 3 days by CellTiter-Glo assay. Conditions: MOLM-14, 72 h.
Experiment [3] is described as follows: Antiproliferative activity against human MOLT4 cells after 3 days by CellTiter-Glo assay. As to conditions: MOLT-4, 72 h.
Experiment [4] is described as follows: Antiproliferative activity against human MV4-11 cells after 3 days by CellTiter-Glo assay. As to conditions: MV4-11, 72 h.

SMILES strings stand for the structures.

Turning to `CC[C@H](Nc1ncnc2[nH]cnc12)c1nc2cccc(F)c2c(=O)n1-c1ccccc1` [IDELALISIB], the IC50 in experiment [1] was 7.9 µM; in experiment [2], 3.6 µM; in experiment [3], 10.6 µM; in experiment [4], 6.3 µM.

As usually defined, the IC50 is the midpoint of a concentration-inhibition curve.

The values are drawn from ChEMBL document CHEMBL3853357, “Discovery of a Series of 5,11-Dihydro-6H-benzo[e]pyrimido[5,4-b][1,4]diazepin-6-ones as Selective PI3K-δ/γ Inhibitors” (ACS Med Chem Lett, 2016).
